Measurements as given in US12162913B2, “Rhipicephalus nicotinic acetylcholine receptor and pest control acting thereon” (priority 2016, dated 2024).

The chains behind the UniProt entries cited, without tags or fusion partners.
UniProt A0A223PM17, entry or part of it I539V: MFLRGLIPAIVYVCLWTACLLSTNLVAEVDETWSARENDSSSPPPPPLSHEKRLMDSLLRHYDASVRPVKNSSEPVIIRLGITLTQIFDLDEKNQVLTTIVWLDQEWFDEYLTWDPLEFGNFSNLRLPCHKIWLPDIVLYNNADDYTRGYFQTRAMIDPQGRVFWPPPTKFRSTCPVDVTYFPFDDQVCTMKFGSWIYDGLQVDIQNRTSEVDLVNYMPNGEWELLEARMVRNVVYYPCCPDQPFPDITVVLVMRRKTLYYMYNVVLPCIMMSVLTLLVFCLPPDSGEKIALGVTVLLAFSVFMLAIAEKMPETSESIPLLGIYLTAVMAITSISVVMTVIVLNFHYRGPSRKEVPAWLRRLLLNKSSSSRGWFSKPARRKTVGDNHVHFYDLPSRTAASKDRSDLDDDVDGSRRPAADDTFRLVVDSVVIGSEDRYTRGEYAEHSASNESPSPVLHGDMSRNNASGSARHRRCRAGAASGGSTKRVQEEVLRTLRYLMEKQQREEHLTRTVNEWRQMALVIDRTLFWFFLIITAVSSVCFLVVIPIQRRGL

Target: R. microplus nAChRα5 (Rmα5) homopentamers (Rhipicephalus microplus, UniProt A0A223PM17, I539V)
Assay: cell-based
Method: The plasmids containing the sequences of choice were linearized using BeuI (Spel) FastDigest (ThermoFisher) restriction enzyme for 30 min at 37°, and an aliquot run on an agarose gel to check for complete linearization. The plasmid DNA was phenol:chloroform purified and ethanol precipitated. The pellet was re-suspended in deionized water. Capped RNA was synthesized using mMessage mMachine T7 kit from 1 μg linearized plasmid DNA, the sample phenol:chloroform purified and isopropanol precipitated. The pellet was re-suspended in deionized water to a concentration of 500 ng/μl, analysed on an agarose gel for integrity and stored at −80° C. until further use.
Xenopus laevis oocytes were purchased as whole ovaries from the European Xenopus Resource Centre (University of Portsmouth), delivered in less than 24 h in Modified Barth's Saline (MBS) on wet ice. Upon arrival, the oocytes were treated with 2 mg/ml collagenase type I (Sigma-Aldrich) in calcium-free Barth's solution (NaCl 88 mM, Tris-HCl 15 mM, NaHCO32.4 mM, MgCl2 0.82 mM, KCl 1 mM, pH 7.5) for 30 min at room temperature. […] Following ligand application, the current required to maintain the membrane potential at −60 mV was measured and used for subsequent data analysis. […]

Structure (SMILES): CC(=O)OCC[N+](C)(C)C [ACh, acetylcholine]
- EC50: 108 ± 27 µM
